Source: patent US20230381328A1, “COMPOUND FOR THE PREVENTION OR TREATMENT OF MYASTHENIA GRAVIS” (ABLEVIA BIOTECH GMBH, priority 2020, published 2023)

System: antibodies directed against a peptide derived from the human AChR protein MIR
Test: In vivo antibody titre lowering by SADC in mice pre-immunized with peptide vaccine T1-1 (peptide ELISA)
Design: species or system BALB/c mice
Settings: 30 μg SADC i.p.; T1-1 immunized mice; titers up to +72 h
Method: Animal models: In order to provide in vivo models with measurable titers of prototypic undesired antibodies in human indications, BALB/c mice were immunized using standard experimental vaccination with KLH-conjugated peptide vaccines derived from established human autoantigens or anti-drug antibodies. […] All experiments were performed in compliance with the guidelines by the corresponding animal ethics authorities.
Immunization of mice with model antigens: Female BALB/c mice (aged 8-10 weeks) were supplied by Janvier (France), maintained under a 12 h light/12 h dark cycle and given free access to food and water. […]
Titer analysis: Peptide ELISAs were performed according to standard procedures using 96-well plates (Nunc Medisorp plates; Thermofisher, Cat Nr 467320) coated for 1 h at RT with BSA-coupled peptides (30 nM, dissolved in PBS) and incubated with the appropriate buffers while shaking (blocking buffer, 1% BSA, lx PBS; washing buffer, 1×PBS/0.1% Tween; dilution buffer, 1×PBS/0.1% BSA/0.1% Tween). After serum incubation (dilutions starting at 1:50 in PBS; typically in 1:3 or 1:2 titration steps), bound antibodies were detected using Horseradish Peroxidase-conjugated goat anti-mouse IgG (Fc) from Jackson immunoresearch (115-035-008). After stopping the reaction, plates were measured at 450 nm for 20 min using TMB. […]

Substance: SADC-E006: Prototypic SADC: C-terminally cysteinylated peptide E006 (VKKIHIPSEKG) linked via sulfo-GMBS to mouse serum albumin scaffold
- antibody titer after SADC application: clearly reduce the titers
